In PubChem BioAssay AID624038 (The Scripps Research Institute Molecular Screening Center, 2012) one finds activation data, which are given here for 28 compounds.

Chains of the proteins cited; added tags and fusions are not shown.
UniProt P08912, whole entry, looked up: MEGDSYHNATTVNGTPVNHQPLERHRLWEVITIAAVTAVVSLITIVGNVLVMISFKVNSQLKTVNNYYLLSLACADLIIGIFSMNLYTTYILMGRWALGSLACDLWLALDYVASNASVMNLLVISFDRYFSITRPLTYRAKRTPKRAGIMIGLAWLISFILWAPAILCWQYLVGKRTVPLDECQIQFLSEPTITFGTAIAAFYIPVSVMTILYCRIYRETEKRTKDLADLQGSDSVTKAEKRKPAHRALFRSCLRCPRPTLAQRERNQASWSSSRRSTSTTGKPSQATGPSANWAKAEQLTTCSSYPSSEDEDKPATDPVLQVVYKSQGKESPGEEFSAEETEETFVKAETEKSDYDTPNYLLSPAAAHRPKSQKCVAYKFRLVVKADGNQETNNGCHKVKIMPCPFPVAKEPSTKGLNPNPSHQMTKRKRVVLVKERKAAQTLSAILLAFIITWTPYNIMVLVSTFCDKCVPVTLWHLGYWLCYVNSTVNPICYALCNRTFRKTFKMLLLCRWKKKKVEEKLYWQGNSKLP

Only a part is listed here, and it is no random draw. Active and inactive are the calls of the source.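 The calls were made as follows: active = activation above the run cutoff, the mean activation of all test compounds plus 3 SD (cut at about 18% in these data); inactive = the rest.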

This experiment deals with Muscarinic acetylcholine receptor M5 (Homo sapiens) (UniProt P08912). The experiment in a line: CHRM5 PAMs potentiating acetylcholine calcium signal – CHO-K1 cells, Fluo-8 calcium fluorescence, primary screen (AID 624038). The settings on record: CHO-K1 hM5, Fluo-8 calcium, ACh EC20 PAM; at 3 µM; active compounds read high; 0% = ACh EC20, 100% = ACh EC100.
Turning to `O=P(Nc1ccccn1)(c1ccc(Br)cc1)c1ccc(Br)cc1`, the activation is inactive: 1.58%.
As for `Nc1ccc(CCCCOc2ccccc2)cc1`, the figure is inactive: 0.09%.
The value for `COc1ccc(N)c([N+](=O)[O-])c1[N+](=O)[O-]` was inactive: 6.3%; that for `c1nnnn1CCn1cnnn1` was inactive: 1.56%.
The value for `O=P(Nc1nccs1)(c1ccccc1)c1ccccc1` was inactive: 5.36%; that for `CC(C)C(=O)NC(Sc1ccccc1)C(Cl)(Cl)Cl` (stereo not drawn) was inactive: 15.2%.
As to `CC(=O)Nc1ccc([As](=O)(O)O)c(O)c1`, the activation was inactive: 0.75%.
Turning to `CC(=O)Nc1ccc(Oc2c([N+](=O)[O-])cc([N+](=O)[O-])cc2[N+](=O)[O-])cc1`, the activation is inactive: 2.56%.
The value for `CCN(CC)CCOC(=O)C(O)(c1ccccc1)c1ccccc1` was inactive: -18.3%.
The value for `Cc1ccccc1CN(C)C(=O)COC(=O)C(O)(c1ccccc1)c1ccccc1` was inactive: 6.05%; that for `C[C@@H]1C=CCP(=O)(Oc2ccccc2)O1` (stereo partly drawn) was inactive: -2.05%; that for `C[C@H]1OP(=O)(Oc2ccccc2)C[C@@H]2O[C@@H]21` (stereo partly drawn) was inactive: -2.72%.
The value for `N#C/C(=C\c1ccc(N(CCBr)CCBr)cc1)C(N)=O` was inactive: -3.21%; that for `CC(=O)c1ccc(N2CC2c2ccncc2)cc1` (stereo not drawn) was inactive: -3.58%.
Regarding `CC1C(=O)OC2CCN3CC=C(COC(=O)C(C)(O)C1(C)O)C23` (stereo not drawn), the activation was inactive: -3.68%.
As for `COC(=O)C1(C)COP(=O)(NCc2ccccc2)OC1` (stereo not drawn), the figure is inactive: -4.5%; as for `CC(C)(C)C(=O)NC(Sc1ccccc1)C(Cl)(Cl)Cl` (stereo not drawn), inactive: 1.97%; as for `CCc1cc(O)c([N+](=O)[O-])c(C)c1[N+](=O)[O-]`, inactive: 4.7%.
As for `O=P1(Nc2nc3ccc(Cl)cc3s2)COc2ccccc2O1` (stereo not drawn), the figure is inactive: -3.02%; as for `CCOc1ccc(C2=NCC(CBr)S2)cc1` (stereo not drawn), inactive: -2.54%; as for `Cc1ccccc1OP(=O)(Nc1ccccn1)Oc1ccccc1C`, inactive: -14.4%.
As to `CC(NC(=O)COC(=O)C(O)(c1ccccc1)c1ccccc1)c1ccccc1` (stereo not drawn), the activation was inactive: -15.6%.
The value for `CN(C)C(=O)Oc1noc2ccccc12` was inactive: -2.02%; that for `O=c1c2cc([N+](=O)[O-])ccc2[nH]c2c([N+](=O)[O-])cc([N+](=O)[O-])cc12` was inactive: -14.4%.
Take `CCN(C(=O)COC(=O)C(O)(c1ccccc1)c1ccccc1)c1c(N)n(Cc2ccccc2)c(=O)[nH]c1=O`: the activation is inactive: -0.86%.
As for `O=C(OC1CN2CCC1CC2)c1ccccc1` (stereo not drawn), the figure is inactive: -16.6%; as for `Clc1ccc(N2CCN(Cc3c[nH]c4ncccc34)CC2)cc1`, inactive: -3.83%.
As for `CCC(=O)N1C2C3N(C(=O)CC)C1C1N(C(=O)CC)C(C(N1C(=O)CC)N3C(=O)CC)N2C(=O)CC`, the figure is inactive: -6.22%.
